The values that follow come from PMC9886266, “New [1,2,4]triazolo[4,3-c]quinazolines as intercalative Topo II inhibitors: Design, synthesis, biological evaluation, and in silico studies” (PLOS ONE, 2023).

Amino acid sequences for entries named in this document (tags omitted). A change or cut given only in a name is not applied to a line headed by its entry.
UniProt P11388: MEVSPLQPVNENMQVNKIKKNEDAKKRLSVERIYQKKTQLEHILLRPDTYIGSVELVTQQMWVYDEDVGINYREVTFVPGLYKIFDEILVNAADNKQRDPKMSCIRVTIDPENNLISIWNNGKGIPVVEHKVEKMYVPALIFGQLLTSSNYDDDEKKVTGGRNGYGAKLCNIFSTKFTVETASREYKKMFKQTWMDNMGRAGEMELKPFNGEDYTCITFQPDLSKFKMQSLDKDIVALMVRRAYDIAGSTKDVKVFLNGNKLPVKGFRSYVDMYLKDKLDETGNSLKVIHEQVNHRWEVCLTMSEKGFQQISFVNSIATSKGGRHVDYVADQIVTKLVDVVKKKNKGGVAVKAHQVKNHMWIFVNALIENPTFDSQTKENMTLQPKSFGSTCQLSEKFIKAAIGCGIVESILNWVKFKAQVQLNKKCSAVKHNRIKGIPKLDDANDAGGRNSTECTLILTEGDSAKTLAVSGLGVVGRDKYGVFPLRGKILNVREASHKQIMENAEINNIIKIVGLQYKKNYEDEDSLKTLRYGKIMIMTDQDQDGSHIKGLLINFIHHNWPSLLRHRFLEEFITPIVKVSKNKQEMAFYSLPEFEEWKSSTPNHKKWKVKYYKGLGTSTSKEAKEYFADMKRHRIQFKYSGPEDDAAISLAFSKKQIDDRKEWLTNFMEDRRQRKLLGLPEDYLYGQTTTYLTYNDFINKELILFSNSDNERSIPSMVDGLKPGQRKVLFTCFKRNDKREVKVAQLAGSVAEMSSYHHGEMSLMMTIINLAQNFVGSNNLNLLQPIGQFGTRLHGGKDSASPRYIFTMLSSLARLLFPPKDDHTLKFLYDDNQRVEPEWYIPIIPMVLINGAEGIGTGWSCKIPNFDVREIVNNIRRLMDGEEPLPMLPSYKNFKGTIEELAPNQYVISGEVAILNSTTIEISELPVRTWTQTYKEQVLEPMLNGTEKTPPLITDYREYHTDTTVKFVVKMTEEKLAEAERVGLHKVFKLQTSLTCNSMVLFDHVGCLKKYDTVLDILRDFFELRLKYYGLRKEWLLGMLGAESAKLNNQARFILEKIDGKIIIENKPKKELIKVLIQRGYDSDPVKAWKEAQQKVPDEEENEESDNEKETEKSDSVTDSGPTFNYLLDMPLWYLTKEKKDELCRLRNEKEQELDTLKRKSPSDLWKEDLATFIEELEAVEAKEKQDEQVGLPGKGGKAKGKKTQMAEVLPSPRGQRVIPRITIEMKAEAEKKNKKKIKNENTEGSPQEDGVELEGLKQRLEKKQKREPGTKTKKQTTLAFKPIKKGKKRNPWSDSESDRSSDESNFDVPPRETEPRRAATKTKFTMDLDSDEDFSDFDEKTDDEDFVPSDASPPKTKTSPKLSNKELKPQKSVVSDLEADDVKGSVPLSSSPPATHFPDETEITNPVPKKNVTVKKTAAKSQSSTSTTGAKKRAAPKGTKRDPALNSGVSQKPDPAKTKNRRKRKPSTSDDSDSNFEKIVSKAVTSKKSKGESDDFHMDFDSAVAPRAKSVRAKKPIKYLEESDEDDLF

This experiment concerns the target T1, Topoisomerase II (Topo II) (Homo sapiens, UniProt P11388).
T1 construct: purchased TopoGEN, Inc., Columbus
Put plainly: In vitro Topo II inhibitory assay (TopoGEN Topo II drug screening kit). Particulars: 50% inhibition of Topoisomerase II activity. The class given is biochemical. The method, then: Doxorubicin as a potent Topo II inhibitor was utilized as a reference drug.
The reported method described by Patra et al was applied using Topo II drug screening kit (TopoGEN, Inc., Columbus). Doxorubicin was used as a positive control.
A typical enzyme reaction was structured to determine Topo II activity. The reaction mixture included Topo II (2 μl), substrate super coiled pHot1 DNA (0.25 μg), 50 μg/ml test compound (2 μl), and assay buffer (4 μl). To start the reaction, the mixture was allowed to incubate in 37°C for 30 min. To terminate the reaction, a mixture of 10% sodium dodecylsulphate (2 μl) and proteinase K (50 μg/mL) was added at 37°C for 15 min. then incubated for 15 min at 37°C.
After that, the DNA was run on 1% agarose gel in BioRad gel electrophoresis system for 1–2 h followed by staining with GelRedTM stain for 2 h and destained for 15 min with TAE buffer. The gel was imaged via BioRad’s Gel DocTMEZ system. […] The results of IC50 values were calculated using the GraphPad Prism version 7. […]
analyzed for their Topo II inhibitory activities. […]
After that, the DNA was run on 1% agarose gel in BioRad gel electrophoresis system for 1–2 h followed by staining with GelRedTM stain for 2 h and destained for 15 min with TAE buffer. […] The results of IC50 values were calculated using the GraphPad Prism version 7. […]

For `COc1cccc2c1C(=O)c1c(O)c3c(c(O)c1C2=O)C[C@@](O)(C(=O)CO)C[C@@H]3O[C@H]1C[C@H](N)[C@H](O)[C@H](C)O1` [Doxorubicin, reference compound], 8.23 ± 0.4 µM corresponded to half-maximal inhibition (IC50).
